How the values were obtained:
MyLa cells [1] = type: cell-based, human
Hut78 cells [2] = type: cell-based, homo sapiens
MyLa cells [3] = experiment: MTT-based viability assay, MyLa cells
Hut78 cells [4] = experiment: MTT-based viability assay, Hut78 cells
[5] = tested on: Sezary syndrome Peripheral blood lymphocytes SPBL; experiment: MTT-based viability assay, Sezary PBL (SPBL)
MyLa cells [6] = experiment: FACS analysis with annexin V and PI staining (apoptosis), MyLa cells
Hut78 cells [7] = experiment: FACS analysis with annexin V and PI staining (apoptosis), Hut78 cells

SMILES: O=C(CCCCCCC(=O)Nc1ccccc1)NO [SAHA, Suberoylanilide hydroxamic acid]
- IC50 short exposure/IC50 long exposure (MyLa cells [1]): 14.3
- IC50 short exposure/IC50 long exposure (Hut78 cells [2]): 17.1
- selectivity vs NPBL by dose-response titration (MyLa cells [3]; MyLa vs NPBL, ANOVA with repeated measures): significantly nonselective
- Selectivity index (SI) (MyLa cells [3]; SI=IC50 NPBL/IC50 MyLa): 0.5
- selectivity vs NPBL by dose-response titration (Hut78 cells [4]; Hut78 vs NPBL, ANOVA with repeated measures): significantly selective
- Selectivity index (SI) (Hut78 cells [4]; SI=IC50 NPBL/IC50 Hut78): 3
- Selectivity index (SI) ([5]; SI=IC50 NPBL/IC50 Sezary PBL): 1.21
- selectivity of induced death vs NPBL ([5]; SPBL vs NPBL, by IC50 values): nonselective death
- apoptosis after short exposure compared to long exposure (fold less) (MyLa cells [6]): 2.75 fold
- apoptosis after short exposure compared to long exposure (fold less) (Hut78 cells [7]): 2.5 fold

— US20170189376A1, “BUTYROYLOXYMETHYL DIETHYL PHOSPHATE COMPOUNDS AND USES THEREOF” (MOR RESEARCH APPLICATIONS LTD., priority 2016, published 2017)
